# Test results taken from patent publication US11098288B2, “D-type amino acid dehydrogenase” (Kureha Corporation, priority 2017, dated 2021).
# Test system: NADP^+
# Experiment: purified protein, by the assay type
# Conditions: other: meso-diaminopimelic acid as substrate, 50° C., values for meso-diaminopimelic acid determined using NADP^+ as the coenzyme
substance,measurement,value
D-type amino acid dehydrogenase derived from T. lipolytica (Thermosyntropha lipolytica DSM 11003),Km,828 µM
same,kcat,83 s⁻¹
same,kcat/Km,100000 M⁻¹ s⁻¹
